# Measurements as given in paper PMC7030922.
# The other results are listed elsewhere or left out.
# Target: Sodium/potassium-transporting ATPase subunit alpha-1 (UniProt Q8VDN2)
# Assay: cross-link between two proteins; cross-linking mass spectrometry
substance,measurement,value
"Proline-rich transmembrane protein 2, E9PUL5",listed as a hit,yes
